Results reported in ChEMBL document CHEMBL5625255, “Discovery of a novel series of potent carbonic anhydrase inhibitors with selective affinity for μ Opioid receptor for Safer and long-lasting analgesia” (2023).

By UniProt entry, the sequences of proteins in these tests, tags left out. Where a name states a change or a piece, a line headed by the entry shows the natural chain unless it says otherwise. Residues count along the entry.
UniProt Q8N1Q1: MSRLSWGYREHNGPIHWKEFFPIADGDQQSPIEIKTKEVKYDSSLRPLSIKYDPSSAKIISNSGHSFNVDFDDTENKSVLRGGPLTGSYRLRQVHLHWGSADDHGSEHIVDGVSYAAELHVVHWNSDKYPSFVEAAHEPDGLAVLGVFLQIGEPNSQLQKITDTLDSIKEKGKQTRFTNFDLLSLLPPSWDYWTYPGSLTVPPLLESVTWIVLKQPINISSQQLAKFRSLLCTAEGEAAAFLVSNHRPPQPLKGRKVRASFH
UniProt Q9ULX7, 16-337 limits assumed: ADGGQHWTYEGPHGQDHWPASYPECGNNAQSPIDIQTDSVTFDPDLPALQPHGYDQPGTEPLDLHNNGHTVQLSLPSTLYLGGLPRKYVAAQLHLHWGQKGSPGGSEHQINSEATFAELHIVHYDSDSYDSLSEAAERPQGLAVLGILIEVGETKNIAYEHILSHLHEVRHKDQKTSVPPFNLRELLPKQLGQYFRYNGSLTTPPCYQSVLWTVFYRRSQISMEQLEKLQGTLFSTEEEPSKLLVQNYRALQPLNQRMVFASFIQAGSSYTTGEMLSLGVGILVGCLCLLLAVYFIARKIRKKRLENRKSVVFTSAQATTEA
UniProt P00915, 2-261 limits assumed: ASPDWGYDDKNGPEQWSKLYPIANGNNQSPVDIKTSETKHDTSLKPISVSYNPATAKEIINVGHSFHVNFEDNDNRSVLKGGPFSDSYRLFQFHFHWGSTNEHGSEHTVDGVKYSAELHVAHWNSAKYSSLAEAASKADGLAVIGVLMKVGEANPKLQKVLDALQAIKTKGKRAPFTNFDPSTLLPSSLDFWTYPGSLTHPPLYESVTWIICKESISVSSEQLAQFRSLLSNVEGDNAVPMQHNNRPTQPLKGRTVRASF
UniProt P43166: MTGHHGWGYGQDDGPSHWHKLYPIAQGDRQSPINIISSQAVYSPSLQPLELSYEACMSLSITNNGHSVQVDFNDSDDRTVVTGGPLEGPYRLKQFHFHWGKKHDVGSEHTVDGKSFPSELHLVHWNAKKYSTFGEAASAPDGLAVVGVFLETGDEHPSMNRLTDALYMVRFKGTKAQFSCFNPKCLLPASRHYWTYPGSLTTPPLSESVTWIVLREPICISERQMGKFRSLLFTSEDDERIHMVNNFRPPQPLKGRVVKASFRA
UniProt P22748, 19-284 limits assumed: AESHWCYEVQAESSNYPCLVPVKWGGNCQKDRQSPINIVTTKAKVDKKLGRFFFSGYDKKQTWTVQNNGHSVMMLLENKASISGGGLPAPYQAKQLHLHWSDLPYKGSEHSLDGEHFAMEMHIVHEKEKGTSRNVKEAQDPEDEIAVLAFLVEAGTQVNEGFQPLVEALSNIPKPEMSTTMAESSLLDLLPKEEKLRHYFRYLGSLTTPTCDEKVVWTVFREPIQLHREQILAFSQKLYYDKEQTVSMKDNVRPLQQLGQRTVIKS
UniProt O43570, 25-354 limits assumed: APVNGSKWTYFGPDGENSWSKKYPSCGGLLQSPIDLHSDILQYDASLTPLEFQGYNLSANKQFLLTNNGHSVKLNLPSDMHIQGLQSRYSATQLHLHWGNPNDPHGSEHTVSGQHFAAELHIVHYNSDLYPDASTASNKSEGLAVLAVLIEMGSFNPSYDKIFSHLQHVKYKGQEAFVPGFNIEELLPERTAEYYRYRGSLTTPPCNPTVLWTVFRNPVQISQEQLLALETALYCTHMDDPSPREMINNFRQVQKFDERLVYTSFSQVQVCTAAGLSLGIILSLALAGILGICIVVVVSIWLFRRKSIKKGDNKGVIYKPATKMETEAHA
UniProt P35218, 39-305 limits assumed: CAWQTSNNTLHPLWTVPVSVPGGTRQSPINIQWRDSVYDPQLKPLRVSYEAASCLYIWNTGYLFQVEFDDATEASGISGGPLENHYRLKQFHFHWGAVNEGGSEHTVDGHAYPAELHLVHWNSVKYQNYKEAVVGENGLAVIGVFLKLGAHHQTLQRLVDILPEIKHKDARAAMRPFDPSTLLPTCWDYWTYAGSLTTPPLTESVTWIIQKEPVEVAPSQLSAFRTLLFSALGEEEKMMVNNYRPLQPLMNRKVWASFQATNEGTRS
UniProt P41144: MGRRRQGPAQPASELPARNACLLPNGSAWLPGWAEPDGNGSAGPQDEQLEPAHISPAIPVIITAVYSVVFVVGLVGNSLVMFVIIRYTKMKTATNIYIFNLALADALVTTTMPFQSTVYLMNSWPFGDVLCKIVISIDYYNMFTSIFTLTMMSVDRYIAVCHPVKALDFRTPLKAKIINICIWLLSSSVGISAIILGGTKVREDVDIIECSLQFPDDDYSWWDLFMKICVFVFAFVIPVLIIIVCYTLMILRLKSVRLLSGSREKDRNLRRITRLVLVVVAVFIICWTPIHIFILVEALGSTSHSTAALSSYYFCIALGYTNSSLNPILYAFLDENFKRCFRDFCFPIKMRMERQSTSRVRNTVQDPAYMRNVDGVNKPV

Tests used:
Carbonic anhydrase 13 = Carbonic anhydrase 13 (Homo sapiens, UniProt Q8N1Q1); experiment: Inhibition of recombinant human CA-XIII incubated for 15 mins by stop-flow method
Carbonic anhydrase 9 = Carbonic anhydrase 9 (Homo sapiens, UniProt Q16790); experiment: Inhibition of recombinant human CA-IX incubated for 15 mins by stop-flow method
Carbonic anhydrase 14 = Carbonic anhydrase 14 (Homo sapiens, UniProt Q9ULX7); experiment: Inhibition of recombinant human CA-XIV incubated for 15 mins by stop-flow method
Carbonic anhydrase 1 = Carbonic anhydrase 1 (Homo sapiens, UniProt P00915); experiment: Inhibition of recombinant human CA-I incubated for 15 mins by stop-flow method
Carbonic anhydrase 7 = Carbonic anhydrase 7 (Homo sapiens, UniProt P43166); experiment: Inhibition of recombinant human CA-VII incubated for 15 mins by stop-flow method
Carbonic anhydrase 4 = Carbonic anhydrase 4 (Homo sapiens, UniProt P22748); experiment: Inhibition of recombinant human CA-IV incubated for 15 mins by stop-flow method
Carbonic anhydrase 2 = Carbonic anhydrase 2 (Homo sapiens, UniProt P00918); experiment: Inhibition of recombinant human CA-II incubated for 15 mins by stop-flow method
Carbonic anhydrase 12 = Carbonic anhydrase 12 (Homo sapiens, UniProt O43570); experiment: Inhibition of recombinant human CA-XII incubated for 15 mins by stop-flow method
[1] = target: Carbonic anhydrase 5A, mitochondrial (Homo sapiens, UniProt P35218); experiment: Inhibition of recombinant human CA-VA incubated for 15 mins by stop-flow method
[2] = target: Kappa-type opioid receptor (Cavia porcellus, UniProt P41144); experiment: Inhibition of KOR in guinea pig brain membrane by liquid scintillation counter analysis

## Cc1ccc(NC2CCN(CCc3ccc(S(N)(=O)=O)cc3)CC2)cc1
Carbonic anhydrase 13
  Ki: 711 nM
Carbonic anhydrase 9
  Ki: 45.3 nM
Carbonic anhydrase 14
  Ki: 59.4 nM
Carbonic anhydrase 1
  Ki: 88.4 nM
Carbonic anhydrase 7
  Ki: 26.2 nM
Carbonic anhydrase 4
  Ki: 9650 nM
Carbonic anhydrase 2
  Ki: 28.3 nM
Carbonic anhydrase 12
  Ki: 25.8 nM

## NC(=O)C1(Nc2ccccc2)CCN(CCc2ccc(S(N)(=O)=O)cc2)CC1
[1]
  Ki: 89.1 nM
Carbonic anhydrase 13
  Ki: 3740 nM
Carbonic anhydrase 9
  Ki: 28 nM
Carbonic anhydrase 7
  Ki: 30.1 nM
Carbonic anhydrase 4
  Ki: 9630 nM
Carbonic anhydrase 2
  Ki: 9.1 nM
Carbonic anhydrase 12
  Ki: 24.9 nM

## NS(=O)(=O)c1ccc(NC(=O)NCC2(Nc3ccccc3)CCN(CCc3ccccc3)CC2)cc1
Carbonic anhydrase 9
  Ki: 37.2 nM
Carbonic anhydrase 4
  Ki: 9310 nM

## N#CC1(Nc2ccc3ccccc3c2)CCN(CCc2ccc(S(N)(=O)=O)cc2)CC1
[1]
  Ki: 260 nM
Carbonic anhydrase 13
  Ki: 2240 nM
Carbonic anhydrase 9
  Ki: 44.1 nM
Carbonic anhydrase 14
  Ki: 82.2 nM
Carbonic anhydrase 1
  Ki: 378 nM
Carbonic anhydrase 4
  Ki: 9580 nM
Carbonic anhydrase 2
  Ki: 50.4 nM
Carbonic anhydrase 12
  Ki: 165 nM

## NS(=O)(=O)c1ccc(CCN2CCC(Nc3ccc4ccccc4c3)CC2)cc1
[1]
  Ki: 88.8 nM
Carbonic anhydrase 13
  Ki: 8820 nM
Carbonic anhydrase 1
  Ki: 98.5 nM
Carbonic anhydrase 7
  Ki: 43.5 nM
Carbonic anhydrase 2
  Ki: 9.8 nM
Carbonic anhydrase 12
  Ki: 26 nM

## CN(C(=O)Cc1ccccc1)[C@H]1CC[C@@]2(CCCO2)C[C@@H]1N1CCCC1
[2]
  Ki: 0.73 nM

## NS(=O)(=O)c1ccc(C(=O)NCC2(Nc3ccccc3)CCN(CCc3ccccc3)CC2)cc1
Carbonic anhydrase 14
  Ki: 81.7 nM
